Test results from publication PMC8085013, “Mixture interactions at mammalian olfactory receptors are dependent on the cellular environment” (Scientific Reports, 2021).

Legend:
[1] = target: T1, mouse Olfr73 (Mus musculus, UniProt Q920P2); experiment: GCaMP3 calcium imaging of mouse OSNs ectopically expressing Olfr73 (rAAV2/5), 5-s odorant pulse; assay type: cell-based; conditions: Ca2+ (GCaMP3)
T1 sequence (Q920P2 1-313): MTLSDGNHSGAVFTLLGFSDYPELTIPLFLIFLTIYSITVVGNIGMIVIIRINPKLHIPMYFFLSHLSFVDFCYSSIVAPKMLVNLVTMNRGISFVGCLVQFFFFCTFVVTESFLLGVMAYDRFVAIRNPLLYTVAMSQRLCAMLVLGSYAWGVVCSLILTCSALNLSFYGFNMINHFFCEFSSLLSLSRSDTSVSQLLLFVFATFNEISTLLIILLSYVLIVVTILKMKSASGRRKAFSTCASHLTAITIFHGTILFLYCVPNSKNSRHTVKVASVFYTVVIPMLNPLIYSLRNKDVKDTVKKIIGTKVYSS

[2] = target: T1, mouse Olfr73; assay type: cell-based; conditions: HEK293 short odor Ca2+, Gq11; response normalized to 5 mM eugenol

isoeugenol gave an EC50 [1] of 117 ± 45 µM and an EC50 [2] of 23 ± 8 µM.

Like-named read-outs stand apart in the source and are kept apart here.
